Measurements: US8729064B2, “Heteroaromatic and aromatic piperazinyl azetidinyl amides as monoacylglycerol lipase inhibitors” (Janssen Pharmaceutica, NV, priority 2009, dated 2014)

Amino acid sequences for entries named in this document (tags omitted).
UniProt Q99685, whole entry: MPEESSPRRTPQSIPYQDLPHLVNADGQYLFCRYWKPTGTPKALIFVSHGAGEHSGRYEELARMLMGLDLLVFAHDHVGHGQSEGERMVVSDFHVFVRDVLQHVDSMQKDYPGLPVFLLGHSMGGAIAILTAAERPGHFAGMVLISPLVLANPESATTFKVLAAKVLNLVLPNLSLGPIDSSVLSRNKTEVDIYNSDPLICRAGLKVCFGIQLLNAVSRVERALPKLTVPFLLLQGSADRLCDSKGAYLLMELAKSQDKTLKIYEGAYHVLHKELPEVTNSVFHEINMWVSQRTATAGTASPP

Target: MGL activity in HeLa cell homogenate (Homo sapiens, UniProt Q99685)
Assay: 2-AG Accumulation Assay in HeLa cell homogenate
Type: biochemical
Conditions: 100 nM MAFP (positive control); about 3.4 pmol/sample in absence of MAFP

**Q.** How did the 2-AG levels turn out when `CCCCC/C=C\C/C=C\C/C=C\C/C=C\CCCCOP(=O)(F)OOC` (stereo not shown) was run?
**A.** 174 pmol/sample
